Tested on: split IL-2 CISC (FRB-IL2RB and FKBP-IL2RG) dual-edited human CD4+ T cells
Assay: Enrichment of split IL-2 CISC dual-edited CD4+ T cells
Format: cell-based
Protocol: FIG. 27 depicts an exemplary timeline of steps for dual AAV editing of CD4+ T cells, expansion with rapalog, and analysis of enriched cells. […] Two days post-editing, cells were analyzed by flow for GFP and mCherry expression, and then expanded in media containing 50 ng/ml human IL-2 or 100 nM rapalog. Flow cytometry to assess enrichment of GFP, mCherry double-positive cells was carried out on days 6, 8, and 10 post-editing.
Panel A depicts a schematic showing AAV HDR donors construct used to introduce of the “split” IL-2 CISC elements for selection of dual-edited cells. CISC components (IL2RG vs. IL2RB) are split between 2 constructs and co-expressed with either HA-FoxP3 cDNA or the islet-specific TCR, T1D4 (AAVs #3240 and #3243 respectively). Each repair template is flanked by identical homology arms that […] the gRNA targeting the TRAC locus. Only edited CD4+ T cells incorporating one copy of each construct are predicted to selectively expand under Rapalog treatment. Panel B depicts a timeline of key steps for dual AAV/RNP-based editing of CD4+ T cells, expansion with Rapalog and analysis of enriched cells. […] Two days post-editing, cells were analyzed by flow for HA-FoxP3 and TCR expression, and then expanded in media containing 50 ng/ml human IL-2 or 100 nM Rapalog. Flow cytometry to assess enrichment of HA-FoxP3, TCR double-positive cells was carried out on days 5 and 8 post-editing. Panel C depicts rapalog enrichment of dual-edited cells. Left panel: Flow plots for HA-FoxP3 and TCR in dual-edited cells following 8 days expansion in IL-2 or Rapalog; Right panel: quantitation of percent HA-FoxP3 / TCR double-positive cells following expansion in IL-2 or Rapalog for 5 and 8 days.
In order to obtain sufficient numbers of cells for therapeutic use, it may be useful, in some contexts, to selectively expand engineered cells in vitro. To do this in the context of dual-edited cells, split IL-2 CISC HDR knock-in constructs were generated for enrichment and selection. […] See e.g., FIG. 108. […]

What does the source list for “IL-2: human IL-2 cytokine, comparison culture condition, 50 ng/ml”?
FOXP3/T1D4 double positive cells (#3240 and #3243, day 7, 100 nM AP21967 or 50 ng/mL IL-2, initial 1.6%): 1.47%; enrichment of GFP/mCherry double positive cells (donors R003657 and R003471, AAV #3207 and #3208, 7 days): no enrichment; GFP/mCherry double positive cells (single-locus TRAC split-CISC GFP/mCherry, 100 nM rapalog or IL-2, over 8 days, from 1.4%): no expansion

— US20230279351A1, “ARTIFICIAL ANTIGEN-SPECIFIC IMMUNOREGULATORY T (AIRT) CELLS” (Seattle Children's Hospital (dba Seattle Children's …, priority 2019, published 2023)
